Results taken from patent US20240343813A1, “COMBINATION THERAPY AND RELATED METHODS” (Bicara Therapeutics Inc., priority 2023, published 2024).

Test system: H1792 cells treated with hTGFβ
Assay: Cell morphology (EMT hallmark) after long-term TGFβ treatment
Assay type: cell-based
Conditions: H1792 treated with hTGFβ 4 ng/ml for at least two weeks; BCA101 treatment
Description: Briefly, hKRAS G12C inhibitor resistance was induced in H1792 cells by treating the cells with hTGFβ (4 ng/ml) for at least two weeks. The resultant hKRAS G12C inhibitor resistant H1792 cells were treated with titrating concentrations of a AMG510 and a fixed concentration (50 μg/ml) of BCA101 for 72 hours. […] Cytotoxicity was evaluated using the CellTiter Glo® Luminescent Cell Viability Assay according to manufacturer's instructions (Promega) (as described in Example 6.3).

BCA101: αEGFR x TGFβRII ECD C-terminal LC fusion protein; amino acid sequence SEQ ID NOS: 125-126
cell morphology (TGFβ-induced spindle-like morphology, hallmark of EMT): restored to normal morphology
